Patent publication US11542481B2, “Morphinan N-demethylase isolated from the methylobacterium thebainfresser and methods of use thereof” (priority 2017, dated 2023)

Tested on: MND enzyme
Format: biochemical, Methylobacterium Thebainfresser
Details: overnight enzyme assay at 30° C., 7.5 μM substrate, ~36 μg purified MND enzyme, pH 8.0; reduction of substrate vs empty vector control; percentages approximate
Description: Samples were injected by the UFLCXR (Shimadzu) autosampler/pump system using a 0.5 ml/min flow rate prior to separation using a Gemini C-18 column (150×2.00 mm, 5μ, 110 Å; Phenomenex) and introduction into the QTRAP 6500. The program consisted of a binary gradient with solvent A (5% acetonitrile/5% MeOH/10 mM ammonium acetate/15 mM NH4OH) and solvent B (90% acetonitrile/10 mM ammonium acetate/15 mM NH4OH) and the following gradient: 0-2.0 min 0% B, 2.0-9.0 min 0-44% B, 9.0-11.0 min 44-100% solvent B, 11-13 min 100% B and 100-0% solvent B from 13-14 min and held at 0% B for an additional 8 min. EPI scans for each substrate and predicted product mass were included for each enzyme assay and source parameters were identical to those used for the QTRAP 4000 above except CE and DP which were based upon the optimum for each individual compound. Masses used can be found in table 3. Data were analyzed using Analyst 1.6.2.
Substrates were prepared in a 1 mM stock concentration then diluted to 100 μM working concentration for use in enzyme assays with the MND enzyme. […] All samples were diluted 10 fold with 50% MeOH and analyzed on the QTRAP 6500 using method 2 and a 20 μl injection volume. The percentage of substrate demethylation was calculated based upon reduction of substrate in the enzyme assay as compared to the negative control. […]

In the case of `CN1CC[C@]23c4c5ccc(O)c4O[C@H]2C(=O)CC[C@H]3[C@H]1C5` [Hydromorphone], the Percent demethylated is reported as 98%.
